Experimental data reported in patent publication USRE31463E, “Radiopharmaceutical chelates and method of external imaging” (priority 1980, dated 1983).

Assay: Biodistribution in mice after intravenous injection (organ activities by scintillation counter)
Conditions: i.v.

Substance	injected dose in the intestines (60 minutes)	injected dose in the liver (60 minutes)	injected dose in the liver (30 minutes)
technetium-99m chelate of 8-hydroxyquinoline [Example 8]	20%	40%	–
technetium-99m chelate of N-(o-bromobenzyl) iminodiacetic acid [Example 13]	–	–	40%
